Molecular target: T1, SARS-CoV-2 PLpro (PLpro(S2)) (Severe acute respiratory syndrome coronavirus 2, UniProt P0DTD1)
T1 construct: gene rep
Conditions: autoproteolytic synTF with PLproCSNAT3; dose-response

Cc1ccc(N)cc1C(=O)N[C@H](C)c1cccc2ccccc12 [GRL-0617]
fold induction of nanoLuc over non-treated cells (highest concentration tested): 40 fold

— PMC8609006, “Design of modular autoproteolytic gene switches responsive to anti-coronavirus drug candidates” (Nature Communications, 2021)
